In patent publication US20110143948A1, “MOLECULAR SIGNATURES AND BIOMARKERS ASSOCIATED WITH MELANOMA AND METHODS OF USE THEREOF” (priority 2008, published 2011):

Legend:
[1] = system: NOTCH1; assay: qRT-PCR and Western blotting of NOTCH1 in WM1552C/34b cells; format: cell-based, human; conditions: WM1552C/34b compared to WM1552C; ectopic expression
Method: To understand the significance of down-regulation of miR-34b in malignant melanoma, and thus to develop a systematic rationale for its possible future use as a tumor suppressor and biomarker, its mechanism of action or normal cellular function in skin cells must be understood. FIG. 19 serves as an example model. First, candidate target genes of miR-34b were determined using computational resources including miRanda, miRbase, miRNAmap, Tarbase, PicTar, Target ScanS, and DIANA MicroTest (http://www.ncrna.org). Second, first degree interaction maps (FIG. 20) from each putative target gene were generated to computationally evaluate whether the putative target genes were biologically significant. In this preliminary analysis the putative target genes for miR-34b were imported to GeneGo software for further analysis. In FIG. 20, the nodes in the interaction map indicate direct interaction between miR-34b and their putative target genes. From the most connected and representative genes on the network and pathway analyses, it seems that organogenesis, proliferation, development and cell cycle regulation themes are prevalent, along with ECM signaling, ion and/or vesicle transport. Damage response genes can also be observed, and some well-known signaling cascades (MAPK, IP3) were represented among the putative targets of miR-34b. […]

[2] = system: miR-34b CpG islands in WM1552C; assay: CpG island bisulfite sequencing after 5AzadC treatment; format: cell-based, human; conditions: WM1552C treated with 5AzadC
Method: To investigate epigenetic miRNA regulation within melanoma, one μg of genomic DNA was treated with sodium bisulfite according to the manufacturers protocol (Zymo). 2 μL of bisulfite-treated genomic DNA was used for bisulfite PCR. PCR was performed using AmpliTaq Gold thermostable polymerase (Applied Biosystems) and the following thermocycling profile: 6 minute hot-start at 95° C.; 35 cycles of 94° C. for 20 seconds, 54° C. for 25 seconds, and 72° C. for 30 seconds; 10 minute extension at 72° C. PCR products were gel purified using the QiaQuick gel extraction kit (Qiagen) and cloned into the pCR4-TOPO vector (Invitrogen). 9 clones for each miRNA candidate were sequenced using M13 primers and the BigDye Terminator kit v1.1 (Applied Biosystems), analyzed on a 3130×1 Genetic Analyzer (Applied Biosystems), and aligned using VectorNTI AlignX (Invitrogen).
Specifically, this study focused on the putative promoter region of −631 bps to −396 bps of the CpG islands upstream of miR-34b and focused on the putative promoter region of −170 bps to +58 bps of the CpG islands of miR-375. In addition, miR-124-3a and let-7i were used as negative controls because of the lack of CpG islands (data not shown). No CpG island methylation was detected in either miR-124-3a or let-7i.
miR-34b demethylation results were further confirmed by the CpG island bisulfite studies. […] See FIG. 15, FIG. 16, and FIG. 18. […]

[3] = system: melanoma cell line WM1552C; assay: miRNA arrays (TILDA_ABI and NCode_Invitrogen) of treated melanoma cells; conditions: for let-7e expression, fold change compared to non-treated / miR-21 expression, fold change compared to non-treated / miR-34b expression, fold change compared to non-treated / miR-34c expression, fold change compared to non-treated / miR-132 expression, fold change compared to non-treated / miR-142-3p expression, fold change compared to non-treated / miR-145 expression, fold change compared to non-treated / miR-200a expression, fold change compared to non-treated / miR-375 expression, fold change compared to non-treated / miR-489 expression, fold change compared to non-treated / miR-496 expression, fold change compared to non-treated / miR-519b expression, fold change compared to non-treated / miR-654 expression, fold change compared to non-treated / miR-452 expression, fold change compared to non-treated: WM1552C treated 24 hrs, 3 μM-5AzadC, 1 mM-PBA
[4] = system: miR-34b expression in WM1552C melanoma cells; assay: Northern blot of miR-34b after 5AzadC treatment; format: cell-based, human; conditions: 1-2.5 μM of 5AzadC
[5] = system: melanoma cell line WM1552C; assay: cell viability and cell survival assays; format: cell-based, human; conditions: three independent biological experiments

miR-34b: miRNA ectopically expressed in WM1552C/34b cells, CAAUCACUAACUCCACUGCCAU (listed as Homo sapiens)
NOTCH1 expression (qRT-PCR, Western blotting) [1]: Down-regulation

Nc1ncn([C@H]2C[C@H](O)[C@@H](CO)O2)c(=O)n1 [5AzadC]
CpG island methylation (bisulfite studies) [2]: completely removed previously methylated sites | expression levels of several miRNAs in TLDA arrays ([3]; WM1552C melanoma cells after 5AzadC): marked increase | let-7e expression, fold change compared to non-treated [3]: 2.96 | miR-21 expression, fold change compared to non-treated [3]: 2.124 | miR-34b expression, fold change compared to non-treated [3]: 5.159 | miR-34c expression, fold change compared to non-treated [3]: 4.525 | miR-132 expression, fold change compared to non-treated [3]: 3.239 | miR-142-3p expression, fold change compared to non-treated [3]: 2.928 | miR-145 expression, fold change compared to non-treated [3]: 2.948 | miR-200a expression, fold change compared to non-treated [3]: 2.294 | miR-375 expression, fold change compared to non-treated [3]: 4.701 | miR-489 expression, fold change compared to non-treated [3]: 2.064 | miR-496 expression, fold change compared to non-treated [3]: 2.291 | miR-519b expression, fold change compared to non-treated [3]: 2.46 | miR-654 expression, fold change compared to non-treated [3]: 2.422 | miR-452 expression, fold change compared to non-treated ([3]; first miR-452 line of Table 3): 2.044 | miR-452 expression, fold change compared to non-treated ([3]; second miR-452 line of Table 3): 3.182 | miR-34b expression (Northern blot), low concentrations [4]: No visible expression changes

O=C(O)CCCc1ccccc1 [4PBA]
let-7e expression, fold change compared to non-treated [3]: 0.1571 | miR-21 expression, fold change compared to non-treated [3]: 0.09011 | miR-34b expression, fold change compared to non-treated [3]: −1.872 | miR-34c expression, fold change compared to non-treated [3]: −0.7958 | miR-132 expression, fold change compared to non-treated [3]: 1.033 | miR-142-3p expression, fold change compared to non-treated [3]: 3.621 | miR-145 expression, fold change compared to non-treated [3]: −2.28 | miR-200a expression, fold change compared to non-treated [3]: 2.089 | miR-375 expression, fold change compared to non-treated [3]: 3.397 | miR-489 expression, fold change compared to non-treated [3]: 3.527 | miR-496 expression, fold change compared to non-treated [3]: −0.4714 | miR-519b expression, fold change compared to non-treated [3]: 0.2083 | miR-654 expression, fold change compared to non-treated [3]: −0.3226 | miR-452 expression, fold change compared to non-treated ([3]; first miR-452 line of Table 3): −2.272 | miR-452 expression, fold change compared to non-treated ([3]; second miR-452 line of Table 3): −0.534 | doses shown to be toxic (cell death) [5]: ≥ 5 mM
